# AlphaSeq binding of Ab-14 light chain variants to a spike HR2 peptide

Binding partner: SARS-CoV-2 spike HR2 peptide, sequence PDVDLGDISGINAS.

Each scFv is VH, the linker GGGGSGGGGSGGGGS, VL, as in the parent Ab-14, and differs from it in the CDRs of the light chain only.
VH: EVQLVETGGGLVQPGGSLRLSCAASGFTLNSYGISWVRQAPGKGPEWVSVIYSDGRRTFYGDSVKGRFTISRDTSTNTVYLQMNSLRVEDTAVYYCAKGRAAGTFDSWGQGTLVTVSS
VL: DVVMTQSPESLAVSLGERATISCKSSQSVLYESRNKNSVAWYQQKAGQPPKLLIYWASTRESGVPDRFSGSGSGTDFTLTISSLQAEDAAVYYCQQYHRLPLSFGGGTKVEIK

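The starting antibody came from a phage panning campaign against this peptide. Designed CDR sequences, proposed from the first random library and measured here. Their group label is 14L_En_Gibbs (En: ensemble of fine-tuned language models; Gibbs: Gibbs sampling). AlphaSeq pools MATa yeast showing the antibodies with MATalpha yeast showing the peptide. Binding brings cells together so that they mate, and sequencing counts the barcode pairs among the diploids. Scores were corrected for input abundance and mapped to Kd with protein pairs of known affinity run in the same pool. The assay was run in six technical replicates.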

Each variant's VL is given in full. Values are log10 of the apparent Kd in nM; lower means stronger binding. The mean shown is taken over the replicates in which the pair was detected. Where no diploid with the target was found in that replicate, the entry reads "n.d.": below detection, most likely a poor binder, though not proof of it. Empty control strains, which show no peptide, gave a signal in 4% of pairings with all light chain designs; the median was 2.64 and 95% of these signals were weaker than 1.59. No background was subtracted. For each scFv, signals with the empty controls are counted beside the result, with their mean in brackets.

{"VL": "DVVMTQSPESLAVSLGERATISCKLSWDDMSHFNTRSAIAWYQQKAGQPPKLLIYDMTMRAFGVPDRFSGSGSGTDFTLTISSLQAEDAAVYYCQQYNRLPLDFGGGTKVEIK", "log10 Kd, replicates": "1.45 0.63 1.89 1.28 1.30 1.03", "mean log10 Kd (nM)": "1.26", "signal with controls": "2 of 18 (2.00)"}
{"VL": "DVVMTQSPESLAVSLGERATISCHIQDDAGGAKEQFDSVAWYQQKAGQPPKLLIYSTEERSYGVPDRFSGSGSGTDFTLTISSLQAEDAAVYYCQQYSRLPLSFGGGTKVEIK", "log10 Kd, replicates": "1.41 0.90 0.67 0.55 1.38 1.00", "mean log10 Kd (nM)": "0.98", "signal with controls": "0 of 18"}
{"VL": "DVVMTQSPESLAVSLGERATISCRMTYKAEQDERHNSSVAWYQQKAGQPPKLLIYNGSARVFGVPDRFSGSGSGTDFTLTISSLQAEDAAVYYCQQYYMLPLSFGGGTKVEIK", "log10 Kd, replicates": "1.05 0.81 1.19 0.97 0.68 1.21", "mean log10 Kd (nM)": "0.99", "signal with controls": "1 of 18 (2.98)"}
{"VL": "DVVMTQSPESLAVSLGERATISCQLSMNLEIYDQEQWAVAWYQQKAGQPPKLLIYMGEMRTEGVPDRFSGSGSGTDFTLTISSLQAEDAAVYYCQQYHKLPLSFGGGTKVEIK", "log10 Kd, replicates": "n.d. n.d. n.d. n.d. n.d. n.d.", "mean log10 Kd (nM)": "n.d.", "signal with controls": "1 of 18 (1.48)"}
{"VL": "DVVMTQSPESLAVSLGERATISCKFGISKEGVTRTGKSIAWYQQKAGQPPKLLIYGAQTIDEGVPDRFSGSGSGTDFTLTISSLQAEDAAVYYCQQYARLPLAFGGGTKVEIK", "log10 Kd, replicates": "0.12 1.22 0.32 -0.26 0.60 0.62", "mean log10 Kd (nM)": "0.44", "signal with controls": "0 of 18"}
{"VL": "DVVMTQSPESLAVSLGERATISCNLQYLEENSLIGASAIAWYQQKAGQPPKLLIYDVNIAVMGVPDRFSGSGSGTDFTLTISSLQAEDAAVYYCQQYSRLPLAFGGGTKVEIK", "log10 Kd, replicates": "n.d. 1.39 n.d. 2.27 2.68 n.d.", "mean log10 Kd (nM)": "2.12", "signal with controls": "0 of 18"}
{"VL": "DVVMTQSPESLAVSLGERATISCHMNTADVGVSDHYNSVAWYQQKAGQPPKLLIYEQRAAHIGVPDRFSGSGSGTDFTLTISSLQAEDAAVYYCQQYFRLPLSFGGGTKVEIK", "log10 Kd, replicates": "1.38 1.44 1.38 1.18 1.36 2.41", "mean log10 Kd (nM)": "1.52", "signal with controls": "2 of 18 (2.34)"}
{"VL": "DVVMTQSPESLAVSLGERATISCHLQEQSFMGQKNYSSMAWYQQKAGQPPKLLIYNTECKYNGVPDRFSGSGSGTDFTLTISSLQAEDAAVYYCQQYARLPLMFGGGTKVEIK", "log10 Kd, replicates": "n.d. n.d. n.d. 1.79 n.d. 1.83", "mean log10 Kd (nM)": "1.81", "signal with controls": "0 of 18"}
{"VL": "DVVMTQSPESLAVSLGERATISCNMQLQVRSGNNNKYNIAWYQQKAGQPPKLLIYDEMLREYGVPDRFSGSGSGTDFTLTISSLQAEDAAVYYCQQYNRLPLSFGGGTKVEIK", "log10 Kd, replicates": "1.45 n.d. n.d. n.d. 1.52 2.20", "mean log10 Kd (nM)": "1.72", "signal with controls": "1 of 18 (1.55)"}
{"VL": "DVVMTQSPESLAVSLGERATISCKLWLAMDMFQGEASAVAWYQQKAGQPPKLLIYDQQLTRDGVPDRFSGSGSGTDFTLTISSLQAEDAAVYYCQQYARLPLSFGGGTKVEIK", "log10 Kd, replicates": "n.d. n.d. n.d. n.d. 2.66 n.d.", "mean log10 Kd (nM)": "2.66", "signal with controls": "0 of 18"}
{"VL": "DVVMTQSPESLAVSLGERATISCAIAGTLHVNQSGVSNVAWYQQKAGQPPKLLIYQVQMREVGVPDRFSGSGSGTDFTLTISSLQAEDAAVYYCQQYYQLPLGFGGGTKVEIK", "log10 Kd, replicates": "2.18 1.31 2.12 1.55 2.21 1.34", "mean log10 Kd (nM)": "1.78", "signal with controls": "0 of 18"}
{"VL": "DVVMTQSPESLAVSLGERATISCRISITSDYYMENRSSIAWYQQKAGQPPKLLIYEMTVKEMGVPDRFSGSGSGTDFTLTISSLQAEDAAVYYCQQYQKLPLAFGGGTKVEIK", "log10 Kd, replicates": "n.d. 1.75 2.01 n.d. n.d. 1.95", "mean log10 Kd (nM)": "1.90", "signal with controls": "3 of 18 (2.16)"}
{"VL": "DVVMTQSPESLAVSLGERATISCKLTTQVGHQMDHKNSIAWYQQKAGQPPKLLIYEVDMVACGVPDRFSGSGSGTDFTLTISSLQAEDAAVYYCQQYMRLPLIFGGGTKVEIK", "log10 Kd, replicates": "1.46 1.00 0.96 1.04 1.02 1.39", "mean log10 Kd (nM)": "1.15", "signal with controls": "0 of 18"}
{"VL": "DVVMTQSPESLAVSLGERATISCKIRVNHLMFSQMESNIAWYQQKAGQPPKLLIYGSSVRSRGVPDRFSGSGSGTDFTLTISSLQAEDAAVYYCQQYYHLPLTFGGGTKVEIK", "log10 Kd, replicates": "1.58 1.38 1.39 1.48 1.40 1.47", "mean log10 Kd (nM)": "1.45", "signal with controls": "0 of 18"}
{"VL": "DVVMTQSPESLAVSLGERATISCKLQWYPLEIRDPGSAVAWYQQKAGQPPKLLIYEAATRYNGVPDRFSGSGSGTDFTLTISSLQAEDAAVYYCQQYMRLPLMFGGGTKVEIK", "log10 Kd, replicates": "1.81 1.36 1.52 1.64 1.08 0.67", "mean log10 Kd (nM)": "1.35", "signal with controls": "0 of 18"}
{"VL": "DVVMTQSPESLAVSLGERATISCQLELVQNGDTISEYSVAWYQQKAGQPPKLLIYHAEVSGRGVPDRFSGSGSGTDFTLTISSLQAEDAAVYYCQQYSQLPLIFGGGTKVEIK", "log10 Kd, replicates": "n.d. n.d. n.d. n.d. n.d. n.d.", "mean log10 Kd (nM)": "n.d.", "signal with controls": "0 of 18"}
{"VL": "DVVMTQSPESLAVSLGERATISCHVHMEMAIWKEILNNIAWYQQKAGQPPKLLIYDAQNRAAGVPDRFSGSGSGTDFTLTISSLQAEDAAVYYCQQYFRLPLGFGGGTKVEIK", "log10 Kd, replicates": "1.07 1.23 0.90 1.05 0.70 0.58", "mean log10 Kd (nM)": "0.92", "signal with controls": "3 of 18 (2.22)"}
{"VL": "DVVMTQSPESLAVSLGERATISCMVNGETVHQANRDNNIAWYQQKAGQPPKLLIYEAQLVAAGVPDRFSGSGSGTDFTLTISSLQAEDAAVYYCQDYHRLPFIFGGGTKVEIK", "log10 Kd, replicates": "1.08 1.73 1.42 1.21 1.40 1.38", "mean log10 Kd (nM)": "1.37", "signal with controls": "0 of 18"}
{"VL": "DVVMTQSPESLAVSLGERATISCRFQQWSLESNNTEKSIAWYQQKAGQPPKLLIYSASNREQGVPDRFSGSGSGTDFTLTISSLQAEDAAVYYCQQYARLPLFFGGGTKVEIK", "log10 Kd, replicates": "-0.16 -0.23 0.07 0.04 -0.29 0.28", "mean log10 Kd (nM)": "-0.05", "signal with controls": "0 of 18"}
{"VL": "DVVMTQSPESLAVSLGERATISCIIEQGEYEQEQHKNAIAWYQQKAGQPPKLLIYDGETRMRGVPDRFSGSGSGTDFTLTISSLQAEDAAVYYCQQYYKLPLVFGGGTKVEIK", "log10 Kd, replicates": "0.52 -0.04 0.16 0.13 0.01 -0.02", "mean log10 Kd (nM)": "0.13", "signal with controls": "3 of 18 (2.58)"}
{"VL": "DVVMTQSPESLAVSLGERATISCMFDQHTMEEMDKNNAVAWYQQKAGQPPKLLIYEVTHLVNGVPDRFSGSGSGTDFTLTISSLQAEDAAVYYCQQYAQLPLIFGGGTKVEIK", "log10 Kd, replicates": "0.22 0.58 0.36 0.13 0.54 0.62", "mean log10 Kd (nM)": "0.41", "signal with controls": "1 of 18 (1.57)"}
{"VL": "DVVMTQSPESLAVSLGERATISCHLNTEWNHGANRDNNIAWYQQKAGQPPKLLIYEAQTVAAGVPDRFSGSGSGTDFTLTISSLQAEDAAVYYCQDYFRLPIIFGGGTKVEIK", "log10 Kd, replicates": "n.d. 1.35 1.36 2.57 1.49 2.05", "mean log10 Kd (nM)": "1.76", "signal with controls": "0 of 18"}

The closing 3 entries, repeated:

VL,"log10 Kd, replicates",mean log10 Kd (nM),signal with controls
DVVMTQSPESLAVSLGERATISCIIEQGEYEQEQHKNAIAWYQQKAGQPPKLLIYDGETRMRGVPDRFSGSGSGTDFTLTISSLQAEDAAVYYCQQYYKLPLVFGGGTKVEIK,0.52 -0.04 0.16 0.13 0.01 -0.02,0.13,3 of 18 (2.58)
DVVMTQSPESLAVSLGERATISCMFDQHTMEEMDKNNAVAWYQQKAGQPPKLLIYEVTHLVNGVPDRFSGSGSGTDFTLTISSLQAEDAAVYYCQQYAQLPLIFGGGTKVEIK,0.22 0.58 0.36 0.13 0.54 0.62,0.41,1 of 18 (1.57)
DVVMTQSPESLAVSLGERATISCHLNTEWNHGANRDNNIAWYQQKAGQPPKLLIYEAQTVAAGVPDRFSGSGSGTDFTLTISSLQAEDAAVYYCQDYFRLPIIFGGGTKVEIK,n.d. 1.35 1.36 2.57 1.49 2.05,1.76,0 of 18

The parent sequence was in this pool as ten entries: three were never detected, three once, and four in most replicates, with averages from 0.34 to 2.37. In the paper, a design with two or fewer of six values counts as a poor binder. The range of this assay differs from that of the first round, and the authors advise against merging the two.

The measurements come from Li et al. 2023 (doi:10.1038/s41467-023-39022-2) through the FLAb antibody collection.